Test results from patent US12678471B2 (priority 2022, dated 2026).

Tested on: ACE2-293T cells

In the case of Aromoline, the “Cell viability (%)” value (10 μM, 24 hours, ACE2-293T cells, vehicle group = 100%, mean ± SD (n = 3)) was 97.10 ± 1.84% and the “Cytotoxicity to ACE2-293T cells (result in words)” value (dose of 10 μM) was “caused no harms to the ACE2-293T cells”.
